# Results from PubChem BioAssay AID1347120 (National Center for Advancing Translational Sciences (NCATS), 2019).
# The entries are a selection whose mix differs from that of the whole data set. Results filed as inconclusive are left out. Activity calls are given as the source filed them. The call rests on the fitted dose curve; in most records, active means well fitted activation curve with a large enough effect; inconclusive means small, poorly fitted or top-dose-only effect; inactive means no such curve, though single readings can be large or run the other way.
# Test: qHTS for Suppressors of FUS Proteinopathy: Primary screen using FUS-linked yeast assay;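 further: plate controls were DMSO vehicle for no effect and reference control for full effect; nearly all actives have a fitted effect of over 55% in size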
# Settings: S. cerevisiae FUS-expressing, OD600, 24 h; at 76.6 µM (top of the series)
# Text: Several widespread neurodegenerative diseases, including Alzheimer disease, Huntington disease, Frontotemporal Lobar Degeneration (FTLD) and Amyotrophic Lateral Sclerosis (ALS), share a common pathological feature, namely accumulation of specific protein aggregates in diseased tissue. These diseases which is associated with protein misfolding (proteinopathies) have become increasingly problematic as the population ages and life expectancies are extended. Most proteinopathies are currently incurable, a situation confounded by the fact that the basis of neurodegeneration is generally poorly understood. There exists urgent and significant need to find therapeutics that can inhibit the toxicity associated with protein aggregation. A novel approach to understand the underlying mechanisms of neurodegenerative diseases has recently emerged in which the disease conditions are modeled in the yeast (Saccharomyces cerevisiae), a tractable eukaryotic organism with conserved protein quality control mechanisms. Yeast offers quick and reliable genetic manipulations and can be easily tailored to high-throughput screening (HTS).
# For this project, a yeast model of the FUS proteinopathies (a spectrum of neurodegenerative diseases that include ALS and a subtype of FTLD) was generated and employed. The cytoplasmic accumulation of the DNA/RNA-binding protein FUS (also known as TLS) is causative to both familial and sporadic forms of ALS and FTLD. This yeast model recapitulates neuronal pathology by showing severe cytotoxicity associated with cytoplasmic accumulation of FUS aggregates and a specific interaction between FUS and TDP-43, another ALS-associated protein. […] Specifically, the cellular accumulation of misfolded FUS that disrupts RNA homeostasis in both yeast and higher eukaryotes. This model was validated to be suitable for quantitative HTS (qHTS) use for finding genetic or chemical factors that restore growth. […] Identified compounds that inhibits FUS-yeast toxicity is flagged, re-acquired, and validated for further investigation and optimization.
# NIH Chemical Genomics Center [NCGC]
# NIH Molecular Libraries Probe Production Centers Network [MLPCN]
# Assay Submitter (PI): Frank Shewmaker PhD, Uniformed Services University of the Health Sciences
# Compound CP55940 was used as the positive control. Column 1 was treated with CP55940 titration from 92uM (final concentration, 1:2 dilution), while Column 2 was treated with top dose 92uM. Columns 3 and 4 were treated with DMSO only as negative control to assess background and noise signal.
# Four hundred fifty microliter of cultured yeast (in 20mL rich medium) provided by Dr. Shewmaker lab was incubated at 30C at 99% humidity for 3hr. The culture was then spun down at 4000rpm for 5min and the cell pellet was resuspended in 2mL of Sdmin Media + ALU(330) + 2.5% Raffinose. One hundred microliter of the suspension was added to 900uL of water and OD of the solution was obtained. Twenty mL of responding medium (provided by Shewmaker lab) + 2.5% raffinose was added to ensure cell density of 0.1; the solution was incubated overnight. Working cell solution (FUS-yeast in Sdmi + Sdmi + 1X ALU + 2% galactose media) was prepared (final OD at 0.005) and 3uL was dispensed in a 1536-well Aurora high based clear bottom assay plates. Controls and library compounds (at various final concentrations from 40uM to 0.32uM) were added using a 1536-well pin array using the Kalypsys pin-tool. The plates were then incubated for 24hrs in a cell-culture incubator (30C; 99% humidity). Absorbance at 600nm was then read using the PerkinElmer ViewLux plate reader.
row,SMILES,growth rescue (activation)
1,O=[N+]([O-])c1ccc2c(c1)nnn2O,inactive: 22.4%
2,CCOP1(=S)c2c(C)nn(CCC#N)c2N=C(c2ccc(F)cc2)N1C (stereo not given),inactive: 0.683%
3,CN(C(=O)Cc1ccccc1)[C@@H]1CC[C@]2(CCCO2)C[C@H]1N1CCCC1,inactive: -15%
4,N#CCCN(C(=O)COC(=O)C(O)(c1ccccc1)c1ccccc1)c1ccc(F)cc1,inactive: 42.4%
5,CS(=O)(=O)c1cc([N+](=O)[O-])c2no[n+]([O-])c2c1,inactive: 20.6%
6,O=P(Nc1nccs1)(Oc1ccccc1)Oc1ccccc1,inactive: -19.1%
7,CCOP1(=S)c2c(C)nn(CCC#N)c2N=C(c2ccccc2F)N1C (stereo not given),inactive: 4.74%
8,O=C(O)COc1ccc([As](=O)(O)O)cc1[N+](=O)[O-],inactive: 1.2%
9,Nc1ccccc1[As](=O)(O)c1ccccc1,inactive: -12.2%
10,CCCOP(=S)(Nc1nc(N)cc(=O)[nH]1)OCCC,inactive: -15.8%
11,Nc1cccc2c([As](=O)(O)O)cccc12,inactive: -24%
12,CCOP(=O)(Nc1cccc2ccccc12)OCC,inactive: 4.87%
13,CS(=O)(=O)c1ccc(Cl)c(NC(=O)COC(=O)C(O)(c2ccccc2)c2ccccc2)c1,inactive: 37.5%
14,COc1cc(C(=O)NCC2(N3CCOCC3)CCCCC2)cc(Cl)c1OC(C)C,inactive: -1.28%
15,O=[As](O)(O)c1cccnc1,inactive: -11.6%
16,O=C(OC1CN2CCC1CC2)c1ccc(Cl)cc1 (stereo not given),inactive: -7%
17,O=[As](O)(c1cccc(O)c1)c1cccc(O)c1,inactive: -19.3%
18,Cc1cccc(OCC(=O)OC2CN3CCC2CC3)c1 (stereo not given),inactive: -26.8%
19,COc1ccc(N/C(=N/P(=O)(N2CCOCC2)N2CCOCC2)N2CCOCC2)cc1,inactive: 5.75%
20,Cc1cc(=O)[nH]c(N[N+](=O)[O-])n1,inactive: -0.573%
21,O=C(OC1CN2CCC1CC2)C12CC3CC(CC(C3)C1)C2 (stereo not given),inactive: -16.9%
22,Cc1c2c(nc3ccccc13)SC(C(Cl)Cl)C2 (stereo not given),inactive: 26.3%
23,COc1cc(I)ccc1[As](=O)(O)O,inactive: 3.89%
24,COc1ccc2nc(NP(=O)(c3ccccc3)c3ccccc3)sc2c1,inactive: -0.385%
25,O=P1(N(CCCl)CCCl)Nc2ccccc2N1,inactive: 3.47%

row,SMILES,growth rescue (activation)
1,CC(C)c1ccc(OP(=O)(Nc2ccccn2)Oc2ccccc2F)cc1 (stereo not given),inactive: 7.51%
2,ClCCSc1nnc(-c2cccnc2)o1,inactive: -9.06%
3,O=[N+]([O-])c1cc([N+](=O)[O-])c(-c2ccn[nH]2)s1,inactive: -7.81%
4,O=C(OC1CN2CCC1CC2)c1cccc2[nH]cnc12 (stereo not given),inactive: -6.94%
5,CCN(CC)C(=S)SC(NC=O)C(Cl)(Cl)Cl (stereo not given),inactive: -3.56%
6,CC(C)NC(=O)NP(=O)(Oc1ccccc1)Oc1ccccc1,inactive: 3.61%
7,COc1cc(C(=O)NCC2(N3CCOCC3)CCCCC2)ccc1OCC(C)C,inactive: -6.47%
8,O=[N+]([O-])c1ccc(-c2cc([N+](=O)[O-])c(O)c([N+](=O)[O-])c2)cc1,inactive: 29.5%
9,O=[As](O)(c1ccc(O)cc1)c1ccccc1O,inactive: -1.73%
10,C[As](=O)(O)c1cccc(C(=O)O)c1,inactive: -10.1%
11,Cc1ccc2nc3c(c(C)c2c1)CC(C(Cl)Cl)S3 (stereo not given),inactive: 25%
12,Cc1ccc(OP(=O)(Nc2ccc([N+](=O)[O-])cn2)Oc2ccc(C)cc2)cc1,inactive: -19.2%
13,[N-]=[N+]=NC1CCCCC1NC(=O)c1cc([N+](=O)[O-])cc([N+](=O)[O-])c1 (stereo not given),inactive: -5.67%
14,CCOC(=O)Nc1cccc([As](=O)(O)O)c1,inactive: -5.83%
15,O=[N+]([O-])c1ccc(Nc2ccc(Oc3ccc([N+](=O)[O-])cc3[N+](=O)[O-])cc2)c([N+](=O)[O-])c1,inactive: -30.8%
16,Cc1cc(SC(NC=O)C(Cl)(Cl)Cl)ncn1 (stereo not given),inactive: 0.72%
17,O=P(Nc1ccccn1)(c1cccc2ccccc12)c1cccc2ccccc12,inactive: 2.86%
18,CC1CCNP(=O)(N(CCCl)CCCl)O1 (stereo not given),inactive: -15.2%
19,O=C(O)C(O)c1ccc(N(CCCl)CCCl)cc1 (stereo not given),inactive: 2.08%
20,CCOC(=O)Nc1ccc([As](=O)(O)O)c(O)c1,inactive: -18.2%
21,CCCCOc1ccc(C(=O)NCC2(N3CCCCC3)CCCCC2)cc1OC,inactive: 18%
22,COP(=O)(OC)N1CC1c1ccccc1 (stereo not given),inactive: -5.23%
23,CCOC(=O)c1ccc(NC(=O)C(C)(CCl)SC)cc1 (stereo not given),inactive: 6.71%
24,CSc1ccc(Nc2c([N+](=O)[O-])cc([N+](=O)[O-])cc2[N+](=O)[O-])cc1,inactive: -7.66%
25,O=C(OC1CN2CCC1CC2)c1cccc([N+](=O)[O-])c1 (stereo not given),inactive: 14.4%
